AlphaSeq binding of Ab-14 heavy chain variants to a spike HR2 peptide

Data: MIT Lincoln Laboratory AlphaSeq set, Li et al. 2023, doi:10.1038/s41467-023-39022-2, as distributed in FLAb.

Target: peptide PDVDLGDISGINAS, taken from heptad repeat 2 (HR2) of SARS-CoV-2 spike.

Ab-14 is the parent antibody, in scFv form: VH, then three GGGGS repeats, then VL. The light chain is unchanged in all variants.
VH: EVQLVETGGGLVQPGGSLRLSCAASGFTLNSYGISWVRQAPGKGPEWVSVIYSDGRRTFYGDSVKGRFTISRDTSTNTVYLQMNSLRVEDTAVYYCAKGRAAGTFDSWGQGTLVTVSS
VL: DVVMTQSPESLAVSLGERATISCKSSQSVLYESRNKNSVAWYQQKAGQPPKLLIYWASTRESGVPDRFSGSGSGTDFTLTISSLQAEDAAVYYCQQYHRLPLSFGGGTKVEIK

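Designed CDR sequences, proposed from the first random library and measured here. Their group label is 14H_En_Gibbs (En: ensemble of fine-tuned language models; Gibbs: Gibbs sampling). The assay is AlphaSeq: two haploid yeast populations carry antibody and antigen on their surface. Pairs that bind mate more often; barcode pairs of the diploids are counted by sequencing. The ratio of observed to expected reads was calibrated, replicate by replicate, on BCL2-family standards whose Kd was known from biolayer interferometry. Mating was done six times.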

Each variant is given by its three heavy chain CDRs, as the data file delimits them; those of the parent are GFTLNSYGIS, VIYSDGRRTFYGDSVK, GRAAGTFDS.
Values are log10 of the apparent Kd in nM; lower means stronger binding.
Where no diploid with the target was found in that replicate, the entry reads "ND": below detection, most likely a poor binder, though not proof of it.
Values of this round are not directly comparable with the first-round values of the same sequences.
Empty control strains, which show no peptide, gave a signal in 1% of pairings with all heavy chain designs; the median was 2.08 and 95% of these signals were weaker than 0.84. No background was subtracted. Also given: how often the same scFv was detected with the empty control strains, with their mean in brackets.
Of ten entries with the parent sequence, four were seen in most replicates (averages 0.34 to 2.37), three in one and three in none, so single entries are noisy.
The authors averaged sequences with at least three values out of six and counted those with two or fewer as poor binders.

CDR-H1 | CDR-H2 | CDR-H3 | log10 Kd, replicates | empty controls
GDSLNEYGIS | VIYADGFRAVYTDKVK | GVTGGNFSS | ND ND ND ND ND ND | 0/18
GDSLNEYGIS | VIYADGLRSYYANSVK | GEVDGLFSQ | ND ND ND ND ND ND | 0/18
GFDLNEMGIS | VIYADGRRVAYNDKVK | GNLTGTFDQ | ND ND ND ND ND ND | 0/18
GFLLNEYGIS | VIYADGLRTQYAENVK | GDLAGYLDS | ND ND ND ND ND ND | 0/18
GFNIDEYGIS | VIYADGDRMSYDDAVK | GQISGHIDM | ND ND ND ND ND ND | 0/18
GFSLNEYGIS | VIYADGTRMAYTNSVK | GLMGFVLGM | ND ND ND ND ND ND | 0/18
GFNLNEYGIS | VIYADGIRENYADSFK | GKSNNFFLD | ND ND ND ND ND ND | 0/18
GFDIEEYGIS | VIYADGRRKAYADSVK | GIDVYGKVM | ND ND ND ND ND ND | 0/18
GFDLNEYGIS | VIYADGMRTFYADKAK | GNAGIVAEV | ND ND ND ND ND ND | 0/18
GMDLDEYGIS | VIYADGERSAFANQVK | GVLGGFLTV | ND ND ND ND ND ND | 0/18
GFSLDEYGVS | VIYADGVRQSYADDVK | GGIAGTFLY | 0.22 1.06 -0.25 0.05 -0.27 0.15 | 0/18
GFQLEEMGIS | VIYADGVRTAYSSKVK | GINGDFFDV | ND ND ND ND ND ND | 1/18 (2.24)
GFDIEEYGIS | VIYADGVRTVYADDVK | GIAKGSSLT | 2.51 ND 2.19 ND 2.65 3.52 | 1/18 (2.97)
GFDLNEYGIS | VIYADGHRTRYSNNVK | GGQGGIGLS | ND ND ND ND ND ND | 0/18
GFDLEEYGVS | VIYADGNRSQYIDNVK | GIIGDNVSI | ND ND ND ND ND ND | 2/18 (2.55)
GFDIDEMGIS | VIYADGKRTAYSNQVK | GNINKDGMS | ND ND ND ND ND ND | 1/18 (1.87)
GFDIEEYGIS | VIYADGIRQAYKNDVK | GTNVGRFSV | ND ND 1.93 ND ND ND | 0/18
GKDIESYGVS | VIYADGKRTAYANNFK | GSNAGSFVM | ND ND ND ND ND 2.92 | 0/18
GFQIDEYGIS | VIYADGLRTVYDDAVK | GMDTGLFMD | ND ND ND ND 3.54 ND | 2/18 (2.93)
GSNLDEYGIS | VIYADGMRQAYIEDVK | GTNGVSVFF | ND ND ND ND ND ND | 0/18
GFDLDNEGIS | VIYADGIRTSYQDSVK | GQNVATFNV | ND ND ND ND ND ND | 0/18
GFNLNEYGIS | VIYADGMRVRYANNFK | GYLNVTLMV | ND ND ND ND ND ND | 0/18
GMKLQDYGIS | VIYADGRRTAFSESVK | GQIAGTFNF | ND ND -1.30 ND -0.13 -1.13 | 0/18
GFDLEEFGIS | VIYADGTRTMYLPTVK | GVNGGTFDM | ND ND 1.41 ND ND 1.62 | 0/18
GESLDEFGIS | VIYADGMRTAYTDSVK | GLVAATFVD | ND ND ND ND ND ND | 1/18 (3.78)
GDSLAEYGIS | VIYADGERTAYKNSFK | GWVAGYFDV | ND ND ND ND ND ND | 0/18
GFDLSEYGIS | VIYADGTRKSYADNVK | GDYHGVVST | ND ND ND ND ND ND | 0/18
GFNLNEYGIS | VIYADGKRYEYIDSVK | GIVVGKVLY | ND 2.93 ND ND ND ND | 0/18
GFELDEYGIS | VIYADGKRKFYDQTVK | GKTDGVILD | ND ND 1.74 ND ND 2.08 | 0/18
GFDLEKYGIH | VIYADGMRASYSDAVK | GDLSGTLYI | ND ND ND ND ND ND | 0/18
GFDFQEYGIS | VIYADGQRAYYSDAVK | GNIGAIFSD | ND ND ND ND ND ND | 0/18
GQDLSEYGIS | VIYADGVRRSYANSVK | GNTSGNFSQ | ND ND ND ND ND ND | 0/18
GFGLDEYGIS | VIYADGMRSAYANSVK | GHHAGGIVW | ND ND 2.14 ND ND ND | 0/18